Data on one compound can be found in US6967237B2, “Ghrelin analogs” (priority 2000, dated 2005).

Chains of the proteins cited; added tags and fusions are not shown.
UniProt Q92847, whole entry: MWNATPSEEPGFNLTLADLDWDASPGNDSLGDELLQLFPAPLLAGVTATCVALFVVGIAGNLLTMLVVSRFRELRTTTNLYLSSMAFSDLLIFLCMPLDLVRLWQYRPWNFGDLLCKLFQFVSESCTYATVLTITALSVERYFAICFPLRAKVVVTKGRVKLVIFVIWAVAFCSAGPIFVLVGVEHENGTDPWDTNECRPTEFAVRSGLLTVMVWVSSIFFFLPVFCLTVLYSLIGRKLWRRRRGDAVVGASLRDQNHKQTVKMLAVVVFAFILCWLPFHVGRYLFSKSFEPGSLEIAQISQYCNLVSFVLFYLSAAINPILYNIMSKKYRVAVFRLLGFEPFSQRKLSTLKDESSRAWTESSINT

For the assay, the target named is human GHSR1a (Homo sapiens, UniProt Q92847). Briefly: Aequorin bioluminescence functional assay (intracellular calcium mobilization) in 293AEQ17/GHSR1a cells. Format: cell-based. The settings on record: relative to ghrelin.

For the compound `CCCCCCCC(=O)OC[C@H](NC(=O)[C@H](CO)NC(=O)CN)C(=O)N[C@@H](Cc1ccccc1)C(=O)N[C@@H](CC(C)C)C(=O)N[C@@H](CO)C(=O)N1CCC[C@H]1C(=O)N[C@@H](CCC(=O)O)C(=O)N[C@@H](Cc1c[nH]cn1)C(=O)N[C@@H](CCC(N)=O)C(N)=O` [Compound 20, GSXFLSPEHQ-NH2], the activation at 10 µM is 89 ± 17%.
